AlphaSeq binding of Ab-95 light chain variants to a spike HR2 peptide

Reference: Engelhart et al. 2022, doi:10.1038/s41597-022-01779-4. File: FLAb, binding data.

Binding partner: SARS-CoV-2 spike HR2 peptide, sequence PDVDLGDISGINAS.

The variants keep the heavy chain, the linker and the frameworks of Ab-95 (scFv order VH, a 15-residue (Gly4Ser)3 linker, VL).
VH: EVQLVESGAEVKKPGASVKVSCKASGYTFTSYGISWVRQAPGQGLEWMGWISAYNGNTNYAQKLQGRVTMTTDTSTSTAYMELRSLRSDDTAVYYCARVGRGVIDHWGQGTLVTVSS
VL: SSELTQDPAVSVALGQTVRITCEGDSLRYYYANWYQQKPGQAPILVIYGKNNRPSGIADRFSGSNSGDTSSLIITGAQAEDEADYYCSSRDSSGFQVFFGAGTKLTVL

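The parent was found by panning a naive human phage display library on the peptide. The library (AAYL52) carries one to three amino acid substitutions per variant, with no insertions or deletions. In AlphaSeq, yeast of one mating type display the scFv and yeast of the other type display the target. The frequency of each diploid, read from paired DNA barcodes, reflects how well the two displayed proteins bind. Each replicate has its own calibration line, from reference interactions of the BCL2 family. There are three technical replicates.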

Substitutions are numbered in sequence along the VL above, starting at 1 (not Kabat).
Scale: log10 of Kd in nM, estimated from mating counts; low values are strong binders.
Where no diploid with the target was found in that replicate, the entry reads "nd": below detection, most likely a poor binder, though not proof of it.

changes,"replicates, log10 nM",control signals
Y30Q+S88L+Q96A,1.51 1.53 1.41,5 of 9 (4.15)
Y29C+N33Y+G49P,5.53 3.51 4.58,1 of 9 (4.87)
Y29G+R53F+S55H,nd 5.92 nd,4 of 9 (3.75)
K50Y+R53D+Q96V,4.26 nd 3.84,4 of 9 (4.17)
G24I+S26C+V97T,nd nd 3.91,2 of 9 (3.08)
Y29S+Y30H+A32E,3.55 3.93 4.19,2 of 9 (4.43)
E23C+Y29T+S93R,2.74 3.98 2.86,5 of 9 (4.30)
N51F+D91K+F98P,nd nd nd,2 of 9 (5.06)
L27G+Y30H+Y31M,3.69 3.26 2.94,2 of 9 (4.69)
S89F+Q96W+F98D,3.15 3.62 3.39,4 of 9 (4.06)
S88W+R90T+S92M,3.82 3.51 3.35,4 of 9 (3.68)
S93P+F98W,2.74 2.79 2.37,4 of 9 (3.75)
Y31M+K50L+R90N,nd nd nd,1 of 9 (3.72)
S26P+N51P+S88C,nd 4.93 nd,2 of 9 (4.18)
Y30W+P54L+S89Q,3.83 2.81 2.65,4 of 9 (3.59)
R28H+Y29N+G94S,nd 3.63 nd,1 of 9 (4.80)
L27P+S88F+G94C,4.69 nd nd,3 of 9 (3.62)
N33T+K50P+V97K,2.27 1.99 2.30,1 of 9 (5.44)
A32K+S88R+F95W,3.52 nd nd,3 of 9 (4.10)
D25M+G94I,4.59 3.30 nd,4 of 9 (3.94)
L27S+N52L+S89C,2.61 2.98 2.27,3 of 9 (3.33)
E23Q+R28G+S89D,2.40 2.17 1.91,2 of 9 (3.75)
D91C+V97N+F98V,2.62 2.48 2.35,2 of 9 (4.24)
S26C+K50F+Q96H,nd nd nd,1 of 9 (3.28)
D25T+D91F+S92V,4.05 4.83 nd,1 of 9 (2.67)
Y29V+A32Y+D91Y,nd nd nd,3 of 9 (4.60)
G49N+P54G+S92Y,2.93 3.33 2.73,2 of 9 (4.67)
Y29T+N33A+R53C,nd 3.28 nd,1 of 9 (3.60)
Y31N+K50I+R53K,1.35 1.40 0.79,7 of 9 (4.29)
R28N+G49C+P54D,nd nd 3.07,2 of 9 (2.79)
N52D+R90A+V97T,nd 5.07 nd,2 of 9 (3.42)
G24L+S88W,3.65 nd nd,1 of 9 (3.89)
N33P+G49L+P54G,4.53 nd nd,3 of 9 (3.36)
Y30H+G49N+S55Y,1.40 1.30 0.90,4 of 9 (4.49)
D25I+N51H+S55A,3.46 3.63 3.16,4 of 9 (4.38)
Y29M+G94S+F95W,2.53 3.78 3.11,0 of 9
E23C+A32K+N51W,4.22 nd 4.72,1 of 9 (4.30)
K50S+D91N+G94F,2.49 2.87 2.25,4 of 9 (3.78)
S26Y+P54S+S55L,3.70 2.80 nd,3 of 9 (3.19)
S88G+S93K+V97L,nd nd nd,0 of 9
G24T+Y29E+Y30F,2.68 2.86 2.80,5 of 9 (3.62)
S55T+R90V+F98E,3.50 2.22 2.05,2 of 9 (5.17)
G24W+G94Y+F98S,5.83 4.26 4.42,5 of 9 (4.48)
Y30K+S55K+F95T,3.98 2.57 nd,2 of 9 (4.12)
Y31Q+S88Y+Q96G,nd nd nd,0 of 9
N51K+S55Q+S92W,3.28 nd nd,5 of 9 (3.63)
S89K+R90H+S93D,2.37 2.02 1.51,4 of 9 (4.18)
L27N+Y30P+G94F,2.93 3.70 nd,1 of 9 (4.97)

Picked from the list: the 4 lowest averages where every replicate gave a value.

changes,"replicates, log10 nM",control signals
Y31N+K50I+R53K,1.35 1.40 0.79,7 of 9 (4.29)
Y30H+G49N+S55Y,1.40 1.30 0.90,4 of 9 (4.49)
Y30Q+S88L+Q96A,1.51 1.53 1.41,5 of 9 (4.15)
S89K+R90H+S93D,2.37 2.02 1.51,4 of 9 (4.18)

Empty control strains, which show no peptide, gave a signal in 28% of pairings with library AAYL52; the median was 3.91 and 95% of these signals were weaker than 2.90. No background was subtracted. The control count says in how many pairings with the empty strains this scFv gave a signal, with their mean in brackets.
For reference, the parent read 2.31 as the reference entry and 2.25 as a member of this library.